Assay [1] addresses T1, human serotonin transporter (hSERT) (Homo sapiens, UniProt P31645). The note with it: at 10 μM.
The target of assay [2] is T2, dopamine transporter (DAT) (Homo sapiens, UniProt Q01959). The note with it: at 10 μM.
Assay [3] addresses T1, human serotonin transporter (hSERT). The experiment in a line: biochemical. The note with it: read-out: SERT inhibition.
The target of assay [4] is T2, dopamine transporter (DAT). The experiment in a line: biochemical. The settings on record: read-out: DAT inhibition.

By UniProt entry, the sequences of proteins in these tests, tags left out.
UniProt P31645, whole entry: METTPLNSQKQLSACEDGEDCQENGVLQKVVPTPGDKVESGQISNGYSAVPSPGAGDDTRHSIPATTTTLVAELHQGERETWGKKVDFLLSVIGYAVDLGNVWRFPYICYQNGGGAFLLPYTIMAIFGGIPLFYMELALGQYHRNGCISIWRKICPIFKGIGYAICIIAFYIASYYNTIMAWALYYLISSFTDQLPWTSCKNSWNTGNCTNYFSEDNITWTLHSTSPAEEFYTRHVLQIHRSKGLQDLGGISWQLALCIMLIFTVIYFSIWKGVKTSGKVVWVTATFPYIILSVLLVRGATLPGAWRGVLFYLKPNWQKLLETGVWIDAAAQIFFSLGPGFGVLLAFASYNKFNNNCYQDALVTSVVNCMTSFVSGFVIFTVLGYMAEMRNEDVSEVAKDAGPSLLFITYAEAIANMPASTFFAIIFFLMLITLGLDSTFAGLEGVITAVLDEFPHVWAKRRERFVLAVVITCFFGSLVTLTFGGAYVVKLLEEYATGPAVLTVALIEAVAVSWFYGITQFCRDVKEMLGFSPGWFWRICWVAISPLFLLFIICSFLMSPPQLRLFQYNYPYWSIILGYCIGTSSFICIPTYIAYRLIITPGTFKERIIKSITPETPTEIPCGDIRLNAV
UniProt Q01959, whole entry, species assumed: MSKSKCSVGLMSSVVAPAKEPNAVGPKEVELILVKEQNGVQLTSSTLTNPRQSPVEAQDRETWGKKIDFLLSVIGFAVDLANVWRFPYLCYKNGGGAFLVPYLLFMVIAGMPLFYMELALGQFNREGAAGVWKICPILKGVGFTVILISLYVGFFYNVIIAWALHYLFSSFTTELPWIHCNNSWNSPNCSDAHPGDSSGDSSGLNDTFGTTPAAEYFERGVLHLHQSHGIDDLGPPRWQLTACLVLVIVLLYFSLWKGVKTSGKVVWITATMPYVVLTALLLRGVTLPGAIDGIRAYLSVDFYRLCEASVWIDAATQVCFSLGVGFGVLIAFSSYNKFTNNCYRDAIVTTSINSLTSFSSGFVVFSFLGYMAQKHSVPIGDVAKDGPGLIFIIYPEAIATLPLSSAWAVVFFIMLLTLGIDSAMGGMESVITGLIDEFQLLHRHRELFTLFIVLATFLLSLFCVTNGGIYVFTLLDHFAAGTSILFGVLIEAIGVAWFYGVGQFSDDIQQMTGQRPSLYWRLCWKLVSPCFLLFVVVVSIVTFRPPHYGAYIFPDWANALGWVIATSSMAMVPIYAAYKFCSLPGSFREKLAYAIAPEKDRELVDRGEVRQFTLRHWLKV

As to `Cc1cccc2c1Oc1ccccc1C1(O)CCN(C)CC21` (racemic) [(±)-beloxepin, cis-1,2,3,4,4a,13b-hexahydro-2,10-dimethyldiben-[2,3:6,7]oxepino[4,5c]pyridine-4a-ol]], in assay [1], the SERT inhibition is recorded as 27%. Further, the DAT inhibition in assay [2] is reported as 16%. Further, the inhibition at 10 µM was 27% in assay [3] and 16% in assay [4].

Source of the values: patent US20090233957A1, “(-)-BELOXEPIN AND METHODS FOR ITS SYNTHESIS AND USE” (priority 2008, published 2009).
